By UniProt entry, the sequences of proteins in these tests, tags left out.
UniProt Q9HCT0, whole entry: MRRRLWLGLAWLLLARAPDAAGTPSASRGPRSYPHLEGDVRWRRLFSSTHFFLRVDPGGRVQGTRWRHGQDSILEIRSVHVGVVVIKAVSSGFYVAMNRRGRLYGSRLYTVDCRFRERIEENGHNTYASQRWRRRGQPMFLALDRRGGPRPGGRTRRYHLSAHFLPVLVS

The entries are a selection whose mix differs from that of the whole data set. The source made the active and inactive calls.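 The calls were made as follows: active = mean Tm shift, scaled 0 neutral to 100 positive control, at about 1.3% or above, every replicate too (limit read from the data); inconclusive = no clear call, values can overlap the other calls; inactive = the rest.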
The compounds below were run against Fibroblast growth factor 22 (Homo sapiens) (UniProt Q9HCT0) (assay: FGF22 ligand-induced thermal stabilization – biophysical, thermal shift, single point, FGF22 synaptogenesis inhibitor project, primary screen (AID 651658)). Details: recombinant FGF22 thermal shift, SYPRO orange fluorescence; at 9.99 µM; stronger effect = higher value; percent of sucrose octasulfate shift, DMSO zero.
With O=[As](O)(O)c1cccnc1 the activity (Tm shift, normalised) was inactive: -0.27%.
COc1cc(C(=O)NCC2(N3CCOCC3)CCCCC2)cc(Cl)c1OC(C)C was tested, and the activity (Tm shift, normalised) was inactive: 0.101%.
For CS(=O)(=O)c1ccc(Cl)c(NC(=O)COC(=O)C(O)(c2ccccc2)c2ccccc2)c1, the activity (Tm shift, normalised) was inactive: -0.001%.
In the case of COc1ccccc1OP(C)(=O)Nc1cccc(Br)c1 (stereo unspecified), the activity (Tm shift, normalised) is reported as inactive: 0.243%.
O=C(OC1CN2CCC1CC2)c1ccc(Cl)cc1 (stereo unspecified) was tested, and the activity (Tm shift, normalised) was inactive: -0.17%.
CCOC(=O)c1ccc(NP(C)(=O)Oc2cc(C)cc(C)c2)cc1 (stereo unspecified) was tested, and the activity (Tm shift, normalised) was inactive: 0.114%.
O=[As](O)(c1cccc(O)c1)c1cccc(O)c1 was tested, and the activity (Tm shift, normalised) was inactive: -0.205%.
In the case of Cc1cc(C)cc(OP(C)(=O)Nc2ccc(C)cc2C)c1 (stereo unspecified), the activity (Tm shift, normalised) is reported as inactive: 0.154%.
In the case of CCCOP(=S)(Nc1nc(N)cc(=O)[nH]1)OCCC, the activity (Tm shift, normalised) is reported as inactive: -0.087%.
CP(=O)(Nc1cccc(Br)c1)Oc1ccccc1 (stereo unspecified) was tested, and the activity (Tm shift, normalised) was inactive: 0.682%.
With Nc1cccc2c([As](=O)(O)O)cccc12 the activity (Tm shift, normalised) was inactive: -0.289%.
For Cc1ccc(NCCc2c([N+](=O)[O-])cc([N+](=O)[O-])cc2[N+](=O)[O-])cc1, the activity (Tm shift, normalised) was inactive: 0.406%.
In the case of CCOP(=O)(Nc1cccc2ccccc12)OCC, the activity (Tm shift, normalised) is reported as inactive: 0.046%.
With CCOP1(=S)c2c(C)nn(CCC#N)c2N=C(c2ccccc2F)N1C (stereo unspecified) the activity (Tm shift, normalised) was inactive: 0.254%.
In the case of O=C(O)c1cccc(Nc2c([N+](=O)[O-])cc([N+](=O)[O-])cc2[N+](=O)[O-])c1, the activity (Tm shift, normalised) is reported as inactive: -0.068%.
O=P(Nc1nccs1)(Oc1ccccc1)Oc1ccccc1 was tested, and the activity (Tm shift, normalised) was inactive: 0.167%.
For Nc1ccccc1[As](=O)(O)c1ccccc1, the activity (Tm shift, normalised) was inactive: 0.145%.
With O=C(O)COc1ccc([As](=O)(O)O)cc1[N+](=O)[O-] the activity (Tm shift, normalised) was inactive: -0.19%.
For CN(C)C(=O)c1cc([N+](=O)[O-])cc2c1-c1c(cc([N+](=O)[O-])cc1[N+](=O)[O-])C2=O, the activity (Tm shift, normalised) was inactive: -0.061%.
CN(C(=O)Cc1ccc(Cl)c(Cl)c1)[C@H]1CC[C@@]2(CCCO2)C[C@@H]1N1CCCC1 was tested, and the activity (Tm shift, normalised) was inactive: 0.077%.
N#CCCN(C(=O)COC(=O)C(O)(c1ccccc1)c1ccccc1)c1ccc(F)cc1 was tested, and the activity (Tm shift, normalised) was inactive: -0.029%.
With CN(C(=O)Cc1ccccc1)[C@@H]1CC[C@]2(CCCO2)C[C@H]1N1CCCC1 the activity (Tm shift, normalised) was inactive: -0.204%.
For CCOP1(=S)c2c(C)nn(CCC#N)c2N=C(c2ccc(F)cc2)N1C (stereo unspecified), the activity (Tm shift, normalised) was inactive: 0.092%.
With CC1CCC(C(C)C)C(OP(=O)(Nc2ccccn2)c2ccccc2)C1 (stereo unspecified) the activity (Tm shift, normalised) was inactive: 0.105%.
In the case of Cc1ccc(C(=O)OC2CN3CCC2CC3)cc1 (stereo unspecified), the activity (Tm shift, normalised) is reported as inactive: -0.067%.
For O=C(/C=C/c1ccccc1)OC1CN2CCC1CC2 (stereo unspecified), the activity (Tm shift, normalised) was inactive: -0.034%.
